Yeast mating assay 1: variants of the scFv Ab-14

Data: MIT Lincoln Laboratory AlphaSeq set, Engelhart et al. 2022, doi:10.1038/s41597-022-01779-4, as distributed in FLAb.

Target peptide (SARS-CoV-2 spike, HR2 region): PDVDLGDISGINAS

Ab-14 is the parent antibody, in scFv form: VH, then three GGGGS repeats, then VL. The light chain is unchanged in all variants.
VH: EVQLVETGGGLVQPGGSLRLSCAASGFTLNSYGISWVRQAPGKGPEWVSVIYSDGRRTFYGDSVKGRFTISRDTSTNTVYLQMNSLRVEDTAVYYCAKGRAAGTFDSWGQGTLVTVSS
VL: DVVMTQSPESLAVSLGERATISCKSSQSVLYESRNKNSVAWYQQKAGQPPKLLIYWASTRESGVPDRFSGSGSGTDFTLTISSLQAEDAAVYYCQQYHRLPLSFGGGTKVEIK

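The library (AAYL49) carries one to three amino acid substitutions per variant, with no insertions or deletions. Affinity was read by AlphaSeq, a pooled yeast mating assay with surface-displayed partners. Mating (16 h, 30 °C) was followed by selection of diploids and sequencing of their barcodes. The ratio of observed to expected reads was calibrated, replicate by replicate, on BCL2-family standards whose Kd was known from biolayer interferometry. Each pool was mated in three replicate cultures.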

Variants are written as CDR1, CDR2 and CDR3 of the heavy chain (limits as in the source). Parent: GFTLNSYGIS, VIYSDGRRTFYGDSVK, GRAAGTFDS.
This list gathers variants with a substitution at T104 (VH, numbered from residue 1).
Scale: log10 of Kd in nM, estimated from mating counts; low values are strong binders.
Averages over replicates are reported, and they cover detected replicates only.
A pair that was not seen in that replicate is written "n.d."; this usually means weak binding, but a binder can also be missed.
In this assay the parent's reference entry averaged 0.65; its copy inside this library read 4.11 (one replicate of three).
Background: pairings of library AAYL49 with three empty control strains gave a value in 15% of cases (median 4.06, 5th percentile 2.83). Values in that range, when seen in few replicates, are hard to tell from nonspecific mating.

| CDR-H1 | CDR-H2 | CDR-H3 | log10 Kd (nM) by replicate | mean log10 Kd (nM) |
|---|---|---|---|---|
| GFTLNSYGIS | VIYSDGRRTFYGDSVK | GRAAGLTDS | n.d. n.d. n.d. | n.d. |
| GFTARSYGIS | VIYSDGRRTFYGDSVK | GRAAGWFDS | n.d. n.d. 4.39 | 4.39 |
| NFTLNSYGIS | VIYSDGRRTFYGDSVK | GRAAGYFDS | 1.95 1.58 1.75 | 1.76 |
| GFTLNSYGIS | VIYSTGRRTFYGDLVK | GRAAGRFDS | n.d. n.d. n.d. | n.d. |
| GFTLMSYGIS | VMYSDGRRTFYGDSVK | GRAAGPFDS | 3.68 3.83 6.51 | 4.67 |
| GFTLNSYGIS | VIYSDGRRTFYGDSVK | GRAMWSFDS | n.d. n.d. n.d. | n.d. |
| GFTLNSYGIS | KIYSDGRRTFYCDSVK | GRAAGCFDS | n.d. 3.10 n.d. | 3.10 |
| GFTLNSYGIS | VITSDGRRTFVGDSVK | GRAAGPFDS | n.d. n.d. n.d. | n.d. |
| GFTLNSYGIS | VIASDGRRTFYGDSTK | GRAAGQFDS | n.d. n.d. n.d. | n.d. |
| GFTLNSYGIS | VIYSDGRRTFYIDSVK | GRAAGPFDS | 3.98 3.12 n.d. | 3.55 |
| GFTLNPYGIS | VIYSDGRRTFYGDSVG | GRAAGYFDS | n.d. n.d. n.d. | n.d. |
| GFTLNSYGIL | VIYSDGRRTFYGDSVK | GNAAGKFDS | n.d. n.d. n.d. | n.d. |
| GFTWNSYGIS | VINSDGRRTFYGDSVK | GRAAGSFDS | 3.32 4.76 3.30 | 3.79 |
| GRTLNSYGIS | VIYSNGRRTFYGDSVK | GRAAGHFDS | 4.61 n.d. 4.30 | 4.45 |
| GNTLNSYGIS | VIYSDGRRTQYGDSVK | GRAAGKFDS | 1.73 1.81 2.16 | 1.90 |
| QFTLNSYGIS | VIYSDGRRTFYGDSVK | GRAAGGKDS | 1.91 1.66 1.74 | 1.77 |
| GFTLNSYGIS | CIYSDGRRTFYGDSVK | GRALGCFDS | n.d. 4.94 n.d. | 4.94 |
| GFTLNSYGIS | VIYSDGRRTFYMDSVK | GRAAGQFDS | n.d. n.d. n.d. | n.d. |
| GFTLNSYGIS | VIYSDGRRTFYGDSLK | GRAAGHFVS | n.d. n.d. n.d. | n.d. |
| GFTLNSYGIS | VIYSDGRRTFFGDSVK | GRAAGKFDS | n.d. n.d. n.d. | n.d. |
| GFTLNSYGIS | VIYSDGPRTFYGDSVK | GRAAGARDS | n.d. 3.64 n.d. | 3.64 |
| GFTLNSEGIY | VIYSDGRRTFYGDSVK | GRAAGAFDS | n.d. 3.98 5.73 | 4.85 |
| GFTLNSYGIS | VIYSDGRRTFYGDQVA | GRAAGFFDS | n.d. 3.89 n.d. | 3.89 |
| GFTLNSYGIS | VIYSDGRRTFYGDSVK | GRAAGIFDS | 1.54 1.70 1.49 | 1.57 |
| GFTLNSYGIS | VIYSDGRRTFYGDSVM | GIAAGGFDS | n.d. 3.64 n.d. | 3.64 |
| GITLNSYGIS | VIYSDGRRTFYGDSVK | GRAAWWFDS | n.d. n.d. n.d. | n.d. |
| GFTLNSYGIS | VIYSDGRRTFYGDSVK | GIAAAIFDS | 0.18 0.29 0.16 | 0.21 |
| RFTLNSYGIS | VIYSDGQRTFYGDSVK | GRAAGQFDS | 3.27 3.00 3.01 | 3.10 |
| GFTLNSYEIS | VIYSDPRRTFYGDSVK | GRAAGGFDS | n.d. n.d. n.d. | n.d. |
| GFTLNSYGIS | VIYSDGRRTEYGDSVK | VRAAGKFDS | 5.28 n.d. n.d. | 5.28 |
| GFTLNSYGIS | VIYSDIRRHFYGDSVK | GRAAGRFDS | 2.92 2.39 n.d. | 2.65 |
| GFTRNSYGIS | VIYSDDRRTFYGDSVK | GRAAGLFDS | n.d. n.d. n.d. | n.d. |
| GFTLNSYGIS | VRYSDGRRTFRGDSVK | GRAAGKFDS | n.d. n.d. n.d. | n.d. |

4 of these entries, quoted again:

| CDR-H1 | CDR-H2 | CDR-H3 | log10 Kd (nM) by replicate | mean log10 Kd (nM) |
|---|---|---|---|---|
| GFTLNSYGIS | CIYSDGRRTFYGDSVK | GRALGCFDS | n.d. 4.94 n.d. | 4.94 |
| GFTWNSYGIS | VINSDGRRTFYGDSVK | GRAAGSFDS | 3.32 4.76 3.30 | 3.79 |
| NFTLNSYGIS | VIYSDGRRTFYGDSVK | GRAAGYFDS | 1.95 1.58 1.75 | 1.76 |
| GFTLNSYGIS | VIYSDGRRTFYGDQVA | GRAAGFFDS | n.d. 3.89 n.d. | 3.89 |